In patent US10918720B2, “Selective dendrimer delivery to brain tumors” (The Johns Hopkins University, priority 2014, dated 2021):

Tested on: 9 L gliosarcoma
Test: Confocal imaging of dendrimer and dextran-FITC distribution in intracranial tumor
Details: co-injection of 2 mg D-Cy5 and 2 mg dextran-FITC

With “Fluorescein isothiocyanate-dextran [dextran-FITC]” as the substance, how does the “distribution in the tumor (confocal fluorescence)” value read?
Its value is “only observed around the tumor border and not in the tumor core”.
